Assay results: patent US12415834B2, “GhR-binding peptide and composition comprising same” (priority 2021, dated 2025)

Chains of the proteins cited; added tags and fusions are not shown. A line that says so, or that is headed by a name, gives the form on record, which may keep a tag or linker.
UniProt P10912, with tags, fused parts or gaps limits assumed: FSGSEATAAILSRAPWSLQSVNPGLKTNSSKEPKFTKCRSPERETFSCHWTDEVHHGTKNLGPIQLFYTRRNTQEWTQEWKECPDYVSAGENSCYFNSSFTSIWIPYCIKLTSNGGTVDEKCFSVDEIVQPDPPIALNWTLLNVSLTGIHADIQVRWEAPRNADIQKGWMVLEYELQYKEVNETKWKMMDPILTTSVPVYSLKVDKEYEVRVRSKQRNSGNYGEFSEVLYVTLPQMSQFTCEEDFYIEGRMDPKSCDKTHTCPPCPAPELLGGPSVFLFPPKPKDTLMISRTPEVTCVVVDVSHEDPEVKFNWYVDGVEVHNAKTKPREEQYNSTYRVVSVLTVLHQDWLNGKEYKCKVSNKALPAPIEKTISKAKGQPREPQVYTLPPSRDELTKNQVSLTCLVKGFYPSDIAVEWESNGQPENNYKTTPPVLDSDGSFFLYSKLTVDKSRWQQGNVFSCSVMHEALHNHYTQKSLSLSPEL

Target: T1, Recombinant human GhR-Fc protein (Homo sapiens, UniProt P10912)
T1 construct: purchased R&D Systems
Assay: SPR binding assay (Biacore T200, single-cycle kinetics) of peptides against immobilized human GhR-Fc
Details: hGhR, Table 1 bicyclic peptides, KD calculated from ka and kd
Method: SPR assay was performed using Biacore T200 (cytiva: Former GE Healthcare). After the equilibration of Series S Sensor Chip CM5 (produced by cytiva: Former GE Healthcare) with Running Buffer (HBS-EP with 1% (v/v) DMSO), an EDC/NHS mixture was injected at a flow rate of 10 μL/min for 7 minutes to thereby activate the functional groups on sensor chip. Recombinant human GhR-Fc protein (R&D Systems) in 10 mM Acetate (pH 4.0) was injected immobilized to at a flow rate of 5 μL/min. It took 7 minutes to immobilize the GhR on the substrate surfaces of the sensor chip. Then Ethanolamine was injected at a flow rate of 10 μL/min for 7 minutes. 1M Ethanolamine (aq.) was injected at a flow rate of 10 μL/min for 420 seconds for capping.
Using these Peptide Samples, kinetics of peptides against human GhR-Fc protein were measured. The method adopted for sample measurement was a single-cycle kinetics method. The analysis was conducted using the evaluation software provided with Biacore T200. A DMSO correction curve obtained by solvent correction measurements was applied for the analysis. Kinetics fitting was done on the difference data obtained by subtracting the baseline data from sample measurement data. KD values were calculated based on the association rate constant (ka) and dissociation rate constant (kd). […]

Kd: 2.98 nM
SMILES: CC(C)[C@@H]1NC(=O)[C@H](C(C)C)NC(=O)[C@@H]2CCCCNC(=O)Cn3cc(c4ccccc43)C[C@H](NC(=O)[C@H](CC(N)=O)NC(=O)[C@H](CO)NC1=O)C(=O)N[C@@H](Cc1ccc(C(=O)O)cc1)C(=O)N[C@@H](CCCCN)C(=O)N[C@@H](Cc1c[nH]c3ccc(O)cc13)C(=O)NC(C)(C)C(=O)N[C@@H](C(C)C)C(=O)N[C@H](C(=O)NCCCC[C@H](NC(=O)CC[C@H](NC(=O)CC[C@H](NC(=O)CCCCCCCCCCCCC(=O)O)C(=O)O)C(=O)O)C(N)=O)CSCC(=O)N[C@@H](Cc1ccc(C(=O)O)cc1)C(=O)N2C [Compound 59]
